Source: PubChem BioAssay AID651819 (National Center for Advancing Translational Sciences (NCATS), 2012)
Only a part is listed here, and it is no random draw. Activity calls are given as the source filed them. Rule as the data show it: active = activity change below about -30%; inactive = the rest.

Test system: cytosolic chaperonin (CCT/TRiC complex)
Test: High-Throughput Screening for Modulators of Cytosolic Chaperonin Activity
Conditions: purified chaperonin ATPase assay, HTRF ADP detection, 30 min; hits give low values
Excerpt: The eukaryotic chaperonin named TRiC (for TCP-1 ring complex), also called CCT (for chaperonin containing TCP1), is an essential and conserved chaperone required for the folding and activation of 10-15% of the proteins encoded by the human genome. […] Despite its central role in cellular folding, little is known about TRiC mechanism and mode of substrate binding. Currently, no specific TRiC inhibitors are available. Given the early promise of other chaperone-directed inhibitors as cancer therapeutics (e.g. HSP90 inhibitors), inhibitors of TRiC activity may also selectively target transformed cells and have potential use as therapeutics for cancer.
To this end, a miniaturized assay was developed to screen against the Molecular Libraries Small Molecule Repository (MLSMR).
NIH Chemical Genomics Center [NCGC]
NIH Molecular Libraries Probe Centers Network [MLPCN]
Assay Submitter (PI): Judith Frydman, Stanford University
1.5 uL/well TRiC enzyme suspended in buffer (30 mM TRIS pH7.4, 100 mM KCl, 5 mM MgCl2, 1 mM DTT) was added with BioRAPTR FRD dispenser at 40 nM or 20 nM (based on the enzymatic activity of used batches) final concentration to a white solid bottom medium binding 1536-well plate (Greiner Bio-One, Monroe, NC), and quickly spanned down. 23 nl/well of compound solutions in DMSO were added with a pintool transfer (Kalypsis, San Diego, CA) at a single 76 uM final concentration. Next, 1.5 µl/well ATP was dispensed with BioraptR at 10 uM final concentration after which the plates were incubated at 37 deg C for 30 min. HTRF(R) Transcreener(R) ADP (Cisbio US, Bedford, MA) detection reagents were prepared accordingly to the protocol and dispensed into the plate (1.5 uL/well each), incubated for 30 min at ambient temperature. Then, the plates were read using Envision reader with excitation at 330nm and emission at 615nm (Eu(3)-Cryptate donor signal) and 665nm (d2 acceptor signal). The ratio of […] was calculated for each well.
% is scaled to controls: 0 for no effect and ±100 for the full control effect.

| Compound | activity change |
| --- | --- |
| CCN(CC)CCCOC(=O)C(O)(c1ccccc1)c1ccccc1 | inactive: 0.487% |
| COc1ccccc1-c1ccccn1.O=[N+]([O-])c1cc([N+](=O)[O-])c(O)c([N+](=O)[O-])c1 | inactive: -0.739% |
| Cc1cccc(C)c1OP(C)(N)=O (centres undefined) | inactive: -2.94% |
| CC(C)(C)c1ccc(OP(C)(=O)Nc2ccc(SC(F)(F)F)cc2)cc1 (centres undefined) | inactive: -3.6% |
| O=[N+]([O-])c1ccc2c(c1)C=Nc1ccccc1O2 | inactive: 3.25% |
| O=[N+]([O-])c1cc([N+](=O)[O-])c(Nc2cccnc2)c([N+](=O)[O-])c1 | inactive: -1.16% |
| COc1ccc(OP(C)(=O)Nc2cccc(F)c2)cc1 (centres undefined) | inactive: -0.101% |
| COc1ccccc1OP(C)(=O)Nc1cc(Cl)ccc1C (centres undefined) | inactive: 0.311% |
| Cc1cc(C)cc(OP(C)(N)=O)c1 (centres undefined) | inactive: 0.825% |
| CCOC(=O)c1ccc(NP(C)(=O)Oc2ccccc2)cc1 (centres undefined) | inactive: 2.32% |
| Cc1ccc(NP(C)(=O)Oc2ccccc2)c(C)c1 (centres undefined) | inactive: -2.04% |
| COc1ccccc1OP(C)(=O)Nc1ccc(C)cc1 (centres undefined) | inactive: 0.574% |
| COc1ccccc1OP(C)(=O)Nc1ccccc1 (centres undefined) | inactive: 0.851% |
| CP(=O)(Nc1ccccc1Br)Oc1ccccc1 (centres undefined) | inactive: -4.31% |
| CP(=S)(Nn1cnnc1)Oc1ccccc1 (centres undefined) | inactive: 1.03% |
| Cc1cc(C)cc(OP(C)(=O)Nc2ccc(SC(F)(F)F)cc2)c1 (centres undefined) | inactive: -1.05% |
| CCc1ccc(OP(C)(=O)N2CCN(c3ccc([N+](=O)[O-])cc3)CC2)cc1 (centres undefined) | inactive: -0.15% |
| CP(=O)(NC(=O)Nc1ccccc1)Oc1ccccc1 (centres undefined) | inactive: -1.55% |
| CP(=O)(Oc1ccccc1)OC(c1ccccc1)C(F)(F)F (centres undefined) | inactive: 2.23% |
| Cc1cccc(C)c1OP(C)(=O)Nc1ccc(SC(F)(F)F)cc1 (centres undefined) | inactive: 0.484% |
| CP(=O)(Nc1ccc(SC(F)(F)F)cc1)Oc1ccc(Cl)cc1 (centres undefined) | inactive: -1.17% |
| CP(=O)(Nc1ccccn1)Oc1ccc(Cl)cc1 (centres undefined) | inactive: 3.25% |
| CCOP(C)(=S)SCC(=O)NC(C)C(=O)O (centres undefined) | inactive: 1.91% |

| Compound | activity change |
| --- | --- |
| CCOC(=O)c1ccc(NP(C)(=O)Oc2ccc(OC)cc2)cc1 (centres undefined) | inactive: -1.04% |
| O=[N+]([O-])c1cc([N+](=O)[O-])c(O)c([N+](=O)[O-])c1.c1ccc(Oc2ccncc2)cc1 | inactive: 0.0226% |
| CN(Cc1cccnc1)C(=O)COc1ccc(Cl)c(Cl)c1.O=[N+]([O-])c1cc([N+](=O)[O-])c(O)c([N+](=O)[O-])c1 | inactive: -1.41% |
| O=[N+]([O-])c1cc([N+](=O)[O-])c(-n2nnc3ccccc32)c([N+](=O)[O-])c1 | inactive: -1.84% |
| Cc1nc2ccc3ccccc3c2s1.O=[N+]([O-])c1cc([N+](=O)[O-])c(O)c([N+](=O)[O-])c1 | inactive: -1.6% |
| O=[N+]([O-])c1cc([N+](=O)[O-])c(-c2cnn(-c3ccccc3)c2)c([N+](=O)[O-])c1 | inactive: -0.933% |
| O=[N+]([O-])c1cc([N+](=O)[O-])c(Nc2nnnn2CCO)c([N+](=O)[O-])c1 | inactive: -0.416% |
| CC1=C2N=C(C=C3N=C(C(C)=C4[N-][C@@](C)([C@@H]5N=C1[C@](C)(CCC(=O)NC[C@@H](C)OP(=O)([O-])O[C@H]1[C@@H](O)[C@@H](n6cnc7cc(C)c(C)cc76)O[C@@H]1CO)[C@H]5CC(N)=O)[C@@](C)(CC(N)=O)[C@@H]4CCC(N)=O)[C@@](C)(CC(N)=O)[C@@H]3CCC(N)=O)C(C)(C)[C@@H]2CCC(N)=O.[C-]#N.[Co+3] | inactive: -2.4% |
| CP(=O)(Nc1ccc(SC(F)(F)F)cc1)Oc1ccccc1 (centres undefined) | inactive: -1.2% |
| CCCOc1ccc(NP(C)(=O)Oc2ccc(Cl)cc2)cc1 (centres undefined) | inactive: 1.41% |
| COc1ccccc1OP(C)(=O)Nc1c(C)cccc1C (centres undefined) | inactive: 0.807% |
| CN1CCCCC1COC(=O)C1(O)c2ccccc2CCc2ccccc21 (centres undefined) | inactive: 2.94% |
| CC1=NCCc2c1[nH]c1ccccc21.O=[N+]([O-])c1cc([N+](=O)[O-])c(O)c([N+](=O)[O-])c1 | inactive: -2.26% |
| Cc1cc(C)cc(OP(C)(=O)Nc2ccc(C)cc2C)c1 (centres undefined) | inactive: -0.945% |
| CCOC(=O)c1ccc(NP(C)(=O)Oc2cc(C)cc(C)c2)cc1 (centres undefined) | inactive: -0.685% |
| COc1ccccc1OP(C)(=O)Nc1cccc(Br)c1 (centres undefined) | inactive: 0.758% |
| CP(=O)(Nc1cccc(Br)c1)Oc1ccccc1 (centres undefined) | inactive: -2.47% |
| Cc1cc(C)cc(OP(C)(=O)Nc2ccccn2)c1 (centres undefined) | inactive: 1.53% |
| Cc1ccc(C)c(NP(C)(=O)Oc2ccccc2)c1 (centres undefined) | inactive: 1.07% |
| CC(C)c1ccc(OP(C)(=O)Nc2ccc(SC(F)(F)F)cc2)cc1 (centres undefined) | inactive: -1.64% |
| CP(=O)(Nc1ccccc1F)Oc1ccccc1 (centres undefined) | inactive: -6.28% |
| O=C(OCCN1CCN(CCOCc2ccccc2)CC1)C(O)(c1ccccc1)c1ccccc1 | inactive: -1.29% |
| COc1ccc(OP(C)(=O)Nc2ccc(SC(F)(F)F)cc2)cc1 (centres undefined) | inactive: -1.84% |

| Compound | activity change |
| --- | --- |
| CCOC(=O)c1ccc(NP(C)(=O)Oc2ccc(F)cc2)cc1 (centres undefined) | inactive: -0.3% |
| CCCCCOc1ccc(NP(C)(=O)Oc2ccc(Cl)cc2Cl)cc1 (centres undefined) | inactive: 2.21% |
| CP(=O)(Nc1ccccc1)Oc1ccc(F)cc1 (centres undefined) | inactive: 1.46% |
| CCN(CC)CCCOC(=O)C(O)(c1ccccc1)C1CCCCC1 (centres undefined) | inactive: -0.577% |
| Cc1c([N+](=O)[O-])cc([N+](=O)[O-])c(Br)c1[N+](=O)[O-] | inactive: -28.2% |
| COc1ccc(NP(C)(=O)Oc2ccccc2OC)cc1 (centres undefined) | inactive: -3.99% |
| CN(C)CCOC(=O)C(O)(c1ccccc1)C1CCCCC1 (centres undefined) | inactive: -0.19% |
| COc1ccc(OP(C)(=O)Nc2cccc(Br)c2)cc1 (centres undefined) | inactive: -1.52% |
| Cc1c(C(c2ccc3c(c2)OCO3)c2c(C)n(C)n(-c3ccccc3)c2=O)c(=O)n(-c2ccccc2)n1C.O=[N+]([O-])c1cc([N+](=O)[O-])c(O)c([N+](=O)[O-])c1 | inactive: -0.549% |
| Cc1cc(-c2cccc3ccccc23)c(C)cn1.O=[N+]([O-])c1cc([N+](=O)[O-])c(O)c([N+](=O)[O-])c1 | inactive: -4.7% |
| O=[N+]([O-])c1ccc(OP2(=O)COCCO2)cc1 (centres undefined) | inactive: 0.17% |
| CCOP(C)(=S)SCC(=O)NC(C)(CC)C(=O)O (centres undefined) | inactive: 1.63% |
| CP(=O)(Nc1ccc(SC(F)(F)F)cc1)Oc1ccc(F)cc1 (centres undefined) | inactive: 1.03% |
| O=[N+]([O-])c1cc([N+](=O)[O-])c(C(F)(F)F)c([N+](=O)[O-])c1O | inactive: -1.04% |
| Cc1ccccc1NP(C)(=O)Nc1ccccc1C | inactive: -1.33% |
| CP(=O)(Nc1ccc2c(c1)OCCO2)Oc1ccccc1 (centres undefined) | inactive: 0.733% |
| CCc1ccc(OP(C)(=O)Nc2cccnc2)cc1 (centres undefined) | inactive: 0.487% |
| CP(=O)(Oc1ccccc1)N1CCOC1=O (centres undefined) | inactive: -2.91% |
| O=C(OCCCN1CCCC1)C(O)(c1ccccc1)C1CCCCC1 (centres undefined) | inactive: -0.927% |
| COc1ccccc1OP(C)(=O)Nc1c(C)n(C)n(-c2ccccc2)c1=O (centres undefined) | inactive: -2.94% |
| COc1ccc(OP(C)(=O)Nc2ccc(Br)cc2)cc1 (centres undefined) | inactive: -0.528% |
| CCN(CC)CC(O)COC(=O)C(O)(c1ccccc1)C1CCCCC1 (centres undefined) | inactive: 0.548% |
| CN(C)C(=O)c1c([N+](=O)[O-])cc([N+](=O)[O-])cc1[N+](=O)[O-] | inactive: 0.811% |

| Compound | activity change |
| --- | --- |
| CP(=O)(Nc1ccc(Cl)cc1)Oc1ccc(F)cc1 (centres undefined) | inactive: 0.724% |
| CC(C)(C)c1ccc(OP(C)(=O)O)cc1 | inactive: 0.583% |
| COc1ccccc1OP(C)(=O)Nc1ccccc1Br (centres undefined) | inactive: 1.47% |
| CP(=O)(OC12CC3CC(CC(C3)C1)C2)OC12CC3CC(CC(C3)C1)C2 | inactive: -0.326% |
| CCOC(=O)c1ccc(NP(C)(=O)Oc2ccc(Cl)cc2)cc1 (centres undefined) | inactive: 0.638% |
| Nc1ccc2c(ccc3cccnc32)n1.O=[N+]([O-])c1cc([N+](=O)[O-])c(O)c([N+](=O)[O-])c1 | inactive: -2.51% |
| COc1ccc(OP(C)(=O)Nc2ccccc2Br)cc1 (centres undefined) | inactive: 2.71% |
| COc1ccccc1OP(C)(=O)Nc1ccc(C)c(C)c1 (centres undefined) | inactive: -0.534% |
| Cc1cc(C)cc(OP(C)(=O)Nc2cccc(C(F)(F)F)c2)c1 (centres undefined) | inactive: 0.971% |
| CP(=O)(OCCOc1ccccc1)OCCOc1ccccc1 | inactive: -2.51% |
| CCCCCCCCCCCCCCCC1C[N+](C)(C)CCOP(C)(=O)O1 (centres undefined) | inactive: -3.9% |
| CP(=O)(Nc1ccc(Cl)cc1Cl)Oc1ccccc1 (centres undefined) | inactive: 0.346% |
| CN(C)CCOC(=O)C(O)(c1ccccc1)C1CCCC1 (centres undefined) | inactive: -1.2% |
| COc1ccc(OP(C)(=O)Nc2ccccn2)cc1 (centres undefined) | inactive: -2.12% |
| COc1ccccc1OP(C)(=O)Nc1ccc(Br)cc1 (centres undefined) | inactive: -0.547% |
| CCc1ccc(OP(C)(=O)O)cc1 | inactive: 0.0386% |
| COc1ccccc1OP(C)(=O)Nc1ccc(C)cc1C (centres undefined) | inactive: -1.9% |
| CP(=O)(Nc1ccccn1)Oc1ccccc1 (centres undefined) | inactive: -1.09% |
| O=[N+]([O-])c1cc([N+](=O)[O-])c(Nc2ccccn2)c([N+](=O)[O-])c1 | inactive: -5.89% |
| Cc1c(NP(C)(=O)Oc2ccc(C(C)C)cc2)c(=O)n(-c2ccccc2)n1C (centres undefined) | inactive: -1.03% |
